Test system: morphine stimulus
Assay: Discriminative stimulus assay (morphine vs water, two-lever operant test)
Conditions: 3.0 mg/kg s.c. training dose, 30 min before session

## CN1CC[C@]23c4c5ccc(O)c4O[C@H]2[C@@H](O)C=C[C@H]3[C@H]1C5
Lower part of the table ((+)-Etorphine series)
  Mean Percent Morphine-Lever Responding: 100.00%
Upper part of the table ((-)-Etorphine series)
  Mean Percent Morphine-Lever Responding: 99.96%

Source: patent publication EP0418591B1 (priority 1989, dated 1991)
